Laboratory results reported in article PMC6013488, “A widely-applicable high-throughput cellular thermal shift assay (CETSA) using split Nano Luciferase” (Scientific Reports, 2018).

Legend:
[1] = biological target: human lactate dehydrogenase 5 (Homo sapiens, UniProt P00338); test: LDHA biochemical (enzymatic) assay; settings: Supplementary Table 2; for IC50: read-out: Biochemical Assay IC50
[2] = tested on: lactate production, HEK293T cells; test: Lactate production assay (HEK293T); settings: Supplementary Table 2
LDHA-86b = LDHA-86b (Homo sapiens, UniProt P00338); test: SplitLuc CETSA of LDHA-86b (HEK293T); assay type: cell-based; settings: Supplementary Table 2, 63.5 °C for […] (Fig. 5)

| Structure (SMILES) | Biochemical Assay Efficacy [1] | IC50 [1] [µM] | Lactate production (HEK293T) Efficacy [2] | IC50 ([2]; read-out: Lactate production (HEK293T) IC50) [µM] | CETSA LDHA-86b (HEK293T) Efficacy (LDHA-86b) | EC50 (LDHA-86b; read-out: CETSA LDHA-86b (HEK293T) EC50) [µM] |
| --- | --- | --- | --- | --- | --- | --- |
| O=C(O)c1csc(-n2nc(-c3ccccc3)cc2C(F)(F)F)n1 | -37.3 | 33.5 |  |  |  |  |
| O=C1C[C@@](c2ccc(N3CCOCC3)cc2)(c2ccsc2)NC(=O)C1Sc1ccccc1Cl (stereo partly shown) | -99.4 |  | -52.361 | 3.41 | 148.4 |  |
| Cc1nc2ccc(NC(=O)CCNC(=O)CCCc3ccc(CC(C(=O)O)C(=O)O)cc3)cc2s1 | -85.9 | 1.19 |  |  | 49.3 | 16.5 |
